Reference: IntAct's records for PubMed 18177377

B1: Mannose-binding protein C (Homo sapiens), P11226 (parent)
chain: MSLFPSLPLLLLSMVAASYSETVTCEDAQKTCPAVIACSSPGINGFPGKDGRDGTKGEKGEPGQGLRGLQGPPGKLGPPGNPGPSGSPGPKGQKGDPGKSPDGDSSLAASERKALQTEMARIKKWLTFSLGKQVGNKFFLTNGEIMTFEKVKALCVKFQASVATPRNAAENGAIQNLIKEEAFLGITDEKTEGQFVDLTGNRLTYTNWNEGEPNNAGSDEDCVLLLKNGQWNDVPCSTSHLAVCEFPI

Variants of: B1
Details: with calr_human CALR

effect of a mutation on the interaction | Variant
disrupting interaction strength | MSLFPSLPLLLLSMVAASYSETVTCEDAQKTCPAVIACSSPGINGFPGKDGRDGTKGEKGEPGQGLRGLQGPPGALGPPGNPGPSGSPGPKGQKGDPGKSPDGDSSLAASERKALQTEMARIKKWLTFSLGKQVGNKFFLTNGEIMTFEKVKALCVKFQASVATPRNAAENGAIQNLIKEEAFLGITDEKTEGQFVDLTGNRLTYTNWNEGEPNNAGSDEDCVLLLKNGQWNDVPCSTSHLAVCEFPI [K75A]
disrupting interaction strength | MSLFPSLPLLLLSMVAASYSETVTCEDAQKTCPAVIACSSPGINGFPGKDGRDGTKGEKGEPGQGLRGLQGPPGELGPPGNPGPSGSPGPKGQKGDPGKSPDGDSSLAASERKALQTEMARIKKWLTFSLGKQVGNKFFLTNGEIMTFEKVKALCVKFQASVATPRNAAENGAIQNLIKEEAFLGITDEKTEGQFVDLTGNRLTYTNWNEGEPNNAGSDEDCVLLLKNGQWNDVPCSTSHLAVCEFPI [K75E]
